Data taken from patent US7034056B2, “Aryl and biaryl compounds having MCH modulatory activity” (Pharmacopeia Drug Discovery, inc., priority 2001, dated 2006).

Amino acid sequences for entries named in this document (tags omitted).
UniProt Q99705, whole entry: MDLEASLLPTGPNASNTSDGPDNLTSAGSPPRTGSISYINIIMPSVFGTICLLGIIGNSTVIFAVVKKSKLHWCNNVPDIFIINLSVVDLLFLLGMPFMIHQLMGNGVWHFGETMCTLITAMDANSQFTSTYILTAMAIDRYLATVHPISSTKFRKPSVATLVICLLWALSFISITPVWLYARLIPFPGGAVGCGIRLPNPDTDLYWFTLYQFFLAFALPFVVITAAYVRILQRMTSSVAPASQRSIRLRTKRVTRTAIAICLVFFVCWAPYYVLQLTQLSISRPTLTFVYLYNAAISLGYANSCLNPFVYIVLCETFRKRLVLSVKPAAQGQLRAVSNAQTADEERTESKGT

Target: hMCHR (MCH receptor) (Homo sapiens, UniProt Q99705)
Experiment: MCH Assay PCOP Protocol ([125I]-MCH SPA binding to hMCHR-CHO membranes)
[1] = read-out: Activity (Ki range), [125I]-MCH binding to hMCHR-CHO membranes, class symbols for ranges of Ki
[2] = read-out: Activity (ranges of Ki values), [125I]-MCH 0.5 nM, hMCHR-CHO membranes

SMILES	pKi [1]	pKi [2]
O=C(NCC(CCNCCc1c[nH]c2ccccc12)c1ccc(Cl)c(Cl)c1)Nc1cccc(C(F)(F)F)c1 (centres unmarked)	6.30 to 7.29	–
O=C(NCC(CCNC1CCCC1)c1ccc(-c2cccc([N+](=O)[O-])c2)cc1)Nc1cc(Cl)cc(Cl)c1 (centres unmarked)	7.30 to 9.40	–
Cc1ccc(C(CCN2CCC(NS(C)(=O)=O)CC2)CNC(=O)Nc2cc(Cl)cc(Cl)c2)cc1 (centres unmarked)	–	6.30 to 7.29
CCN(CCC(CNC(=O)Nc1cc(Cl)cc(Cl)c1)c1ccc(-c2cccc(C#N)c2)cc1)S(C)(=O)=O (centres unmarked)	–	6.30 to 7.29
Cc1noc(C)c1NCCC(CNC(=O)Nc1cc(Cl)cc(Cl)c1)c1ccc(Cl)cc1 (centres unmarked)	5.60 to 6.30	–

pKi: −log10 of the molar value. Read-outs that look alike come from different tables or passages of the source.
